Values quoted from earlier work, collected in patent publication US9085793B2, “Ex vivo methods to identify circulating drug metabolites with drug interaction potential” (XPD Consulting, LLC, priority 2012, dated 2015).
Read-outs that look alike come from different tables or passages of the source.

Protein sequences, listed by entry. Tags and fused reporters are not part of them.
UniProt P11712, whole entry: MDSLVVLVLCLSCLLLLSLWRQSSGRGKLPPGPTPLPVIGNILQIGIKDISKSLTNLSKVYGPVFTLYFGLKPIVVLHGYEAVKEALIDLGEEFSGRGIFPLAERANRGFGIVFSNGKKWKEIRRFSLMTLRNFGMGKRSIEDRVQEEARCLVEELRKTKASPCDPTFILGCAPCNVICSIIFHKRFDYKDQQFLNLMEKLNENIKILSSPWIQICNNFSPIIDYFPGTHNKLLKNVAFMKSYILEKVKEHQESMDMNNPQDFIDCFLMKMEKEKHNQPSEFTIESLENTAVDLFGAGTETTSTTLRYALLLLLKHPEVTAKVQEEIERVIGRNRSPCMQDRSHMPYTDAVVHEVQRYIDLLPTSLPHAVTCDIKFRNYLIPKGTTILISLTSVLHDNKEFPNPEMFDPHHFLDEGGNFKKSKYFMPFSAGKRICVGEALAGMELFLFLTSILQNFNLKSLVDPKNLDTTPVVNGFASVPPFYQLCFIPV

Biological target: CYP2C9 (Homo sapiens, UniProt P11712)
Settings: human hepatocytes

IC50 (read-out: IC50 Medium, medium): 54 ± 2.95 µM
IC50 (read-out: IC50 Plasma, human plasma): 14.3 ± 1.27 µM
SMILES: OC(Cn1cncn1)(Cn1cncn1)c1ccc(F)cc1F [Fluconazole]
